Reference: publication PMC6834639

Target: tetrameric transthyretin (TTR) (UniProt P02766)
Experiment: SPR; OpenSPR (Nicoya), TTR immobilised on a COOH chip by amine coupling; Aβ peptides injected (Aβ C-terminals 2.4-48 µM; Aβ (1–40/42) 0.2-20 µM); PBS pH 6.8 with 0.005% Tween 20; 150 s association, 400 s dissociation; 1:1 interaction model

Aβ (1–42) (from UniProt P05067 672-713) (peptide; other documents disagree on this pair)
pKd: 4.13

pKd: −log10 of the molar value.
